Patent US8033977B2, “Methods of enhancing radiation effects with metal nanoparticles” (NanoProbes, Inc., priority 1998, dated 2011)

Assays:
[1] = tested on: Her2+ (BT-474) and Her2− (MCF-7) tumors; assay: Gold biodistribution in mice bearing Her2+ and Her2− tumors (atomic absorption); assay type: in vivo; conditions: 20 hours after i.v. injection, 1.1 g Au/kg, nude mice
[2] = tested on: Her2+ tumor; assay: MicroCT of gold at the tumor periphery in mice bearing Her2+ and Her2− tumors; assay type: in vivo
[3] = tested on: A431 cells; assay: Uptake of gold-antibody conjugate into A431 cells (atomic absorption); assay type: cell-based
Protocol: (§1) An anti-Epidermal Growth Factor receptor (EGFr) antibody, MAb225, was expressed in cell culture, then purified by protein A column chromatography. […] The antibody was checked for purity by gel electrophoresis and its activity was verified by targeting to A431 cells using 15 nm colloidal gold antibody conjugates and silver enhancement. A431 cells, which highly express EGFr, and a control cell line with low expression of EGFr, MCF7, were cultured. Gold-antibody conjugates were added to the growth medium and 2 days later, the medium was changed and more gold-antibody was added. […] On the fifth day, A431 cells were highly loaded with gold.
The amount of gold uptake into the cells was quantified by atomic absorption spectroscopy. A431 cells after the above regimen contained 0.55% gold by weight. Such a level would be enough to have a major effect on the absorbed x-ray dose.

[4] = tested on: MCF7; assay: Uptake of gold-antibody conjugate into control cell line MCF7; assay type: cell-based; conditions: control cell line with low expression of EGFr
Protocol: as §1

[5] = tested on: A431 cells; assay: X-ray dose enhancement in gold-loaded A431 cells, metabolic cell viability test; assay type: cell-based; conditions: 250 kVp x-rays, 0-16 Gray
Protocol: A431 cells were targeted with the gold nanoparticle-anti-EGFr antibody conjugate as described in Example 1. The cells were then washed several times and resuspended in fresh medium, then aliquots of cell suspension were exposed to 250 kVp x-rays with doses between 0 and 16 Gray. A431 cells not exposed to gold nanoparticles were similarly irradiated and used as controls. After irradiation, cells were plated and grown for one week. A metabolic cell viability test was then done to determine the surviving fraction. […] The dose enhancement factor was therefore 4.5.

Row | Substance | Au % id/g, Muscle [1] [% id/g] | average amount of gold in periphery region ([2]; Her2+ tumor, microCT) [% gold by weight] | projected x-ray dose enhancement factor ([2]; at 140 kVp, from 0.45% gold by weight) | delivery to tumor periphery region ([2]; regions with greater than 0.18% gold by weight, Her2+ tumor, microCT) [% id/g] | gold uptake into the cells ([3]; A431 cells, fifth day, atomic absorption spectroscopy) [% gold by weight] | cell growth, cells exposed vs not exposed to gold ([3]; gold-antibody in growth medium) | visible uptake of colloidal gold [4] | cell survival vs cells without gold [5] | dose enhancement factor ([5]; dose required to kill one-half of the cells vs cells without gold)
1 | Herceptin-AuNP: Herceptin (an antibody specific for Her2) coupled to 15 nm gold nanoparticles using a crosslinking reagent | 0.44 ± 0.05 | 0.45 | ~1.7 | 16.4 |  |  |  |  | 
2 | gold nanoparticle-anti-EGFr antibody conjugate: 15 nm colloidal gold conjugated to anti-Epidermal Growth Factor receptor (EGFr) antibody MAb225 |  |  |  |  | 0.55 | No differences in cell growth | did not show any visible uptake | lower survival at all doses | 4.5
